A short description of data set [1]: Three time point assay for plasma, brain and testes distribution after oral dosing. Particulars: rat, time point 2 h.
The target in data set [2] is T1, CSF-1R (Homo sapiens, UniProt P07333). Briefly: Caliper biochemical assay, CSF-1R. Particulars: read-out: CSF-1R Biochemical IC50, Table 6.
Another data set relates to CYP3A4. The data set is described as follows: Hepatocyte CYP induction assay, CYP3A4 gene expression. Particulars: human hepatocytes, donor two.
In data set [3] the test system is KIT phosphorylation in M-07e cells. The data set is described as follows: Cell-based KIT phosphorylation in M-07e cells by pKIT ELISA. Particulars: read-out: M-07e pKIT IC50, SCF stimulation.
In data set [4] the target is T2, PDGFRα (Homo sapiens, UniProt P16234). The data set is described as follows: Caliper biochemical assay, PDGFRα. Particulars: read-out: PDGFRα Biochemical Avg IC50, Table 6.
Data set [5] has as its target T1, CSF-1R. The data set is described as follows: HTRF biochemical assay, CSF-1R. Particulars: read-out: CSF-1R Biochemical IC50 avg, Table 4.
A further data set can be described thus: Kinetic solubility assay. Particulars: 50 mM PB (pH 7.4), shaken 24 hours at RT.
Data set [6] addresses T3, wtKIT (Homo sapiens, UniProt P10721). The data set is described as follows: Caliper biochemical assay, wtKIT. Particulars: read-out: KIT Biochemical IC50 avg, Table 6.
Data set [7] addresses T2, PDGFRα. Briefly: HTRF biochemical assay, PDGFRα. Particulars: read-out: PDFGRα Biochemical IC50 avg, Table 4.
Another data set has as its system Caco-2 cells. The data set is described as follows: Caco-2 permeability assay. Particulars: for Caco-2: Papp A-B: Caco-2, apical to basolateral.
For data set [8], the target named is BCRP (BCRP-MDCKII monolayer) (Homo sapiens, UniProt Q9UNQ0). Briefly: MDCKII-BCRP bidirectional transport assay. Particulars: for MDCK-BCRP: Papp A-B: apical to basolateral.
Data set [9] addresses T3, wtKIT. The data set is described as follows: HTRF biochemical assay, wtKIT (phosphorylation of a peptide substrate). Particulars: read-out: KIT Biochemical IC50 avg, Table 4.
In another data set the target is MDR1 (MDR1-MDCKII cells) (Homo sapiens, UniProt P08183). The data set is described as follows: Permeability in MDR1-MDCKII cells. Particulars: for MDCKII-MDR1: Papp A-B: MDCKII-MDR1, apical to basolateral.

By UniProt entry, the sequences of proteins in these tests, tags left out. Residues count along the entry.
UniProt P07333, 20-972 limits assumed: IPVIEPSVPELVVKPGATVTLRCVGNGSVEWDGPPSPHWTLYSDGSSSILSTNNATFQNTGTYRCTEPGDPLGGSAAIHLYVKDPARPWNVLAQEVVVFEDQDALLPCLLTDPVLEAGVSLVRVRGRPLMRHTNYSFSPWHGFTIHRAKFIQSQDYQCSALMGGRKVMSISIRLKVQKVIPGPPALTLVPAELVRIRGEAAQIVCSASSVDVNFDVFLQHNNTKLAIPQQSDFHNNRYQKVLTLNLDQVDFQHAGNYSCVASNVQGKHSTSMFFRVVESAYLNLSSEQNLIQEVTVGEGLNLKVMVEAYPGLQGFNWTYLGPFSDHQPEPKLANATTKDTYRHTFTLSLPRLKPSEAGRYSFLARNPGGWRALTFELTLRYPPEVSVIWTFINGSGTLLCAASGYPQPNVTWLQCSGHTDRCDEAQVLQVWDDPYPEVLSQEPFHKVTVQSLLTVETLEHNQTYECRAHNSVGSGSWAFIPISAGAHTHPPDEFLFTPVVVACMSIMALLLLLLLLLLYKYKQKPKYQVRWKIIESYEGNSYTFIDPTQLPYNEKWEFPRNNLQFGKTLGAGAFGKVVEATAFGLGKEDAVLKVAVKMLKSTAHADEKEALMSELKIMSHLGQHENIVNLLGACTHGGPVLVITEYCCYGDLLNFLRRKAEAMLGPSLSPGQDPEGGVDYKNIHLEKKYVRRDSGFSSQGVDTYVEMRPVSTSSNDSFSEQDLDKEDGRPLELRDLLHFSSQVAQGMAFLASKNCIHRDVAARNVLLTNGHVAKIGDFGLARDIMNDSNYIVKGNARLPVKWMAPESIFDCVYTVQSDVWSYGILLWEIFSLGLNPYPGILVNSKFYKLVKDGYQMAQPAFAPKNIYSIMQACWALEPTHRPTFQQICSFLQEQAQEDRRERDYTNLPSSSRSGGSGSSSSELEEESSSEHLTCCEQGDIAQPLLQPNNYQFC
UniProt P16234, 24-1089 limits assumed: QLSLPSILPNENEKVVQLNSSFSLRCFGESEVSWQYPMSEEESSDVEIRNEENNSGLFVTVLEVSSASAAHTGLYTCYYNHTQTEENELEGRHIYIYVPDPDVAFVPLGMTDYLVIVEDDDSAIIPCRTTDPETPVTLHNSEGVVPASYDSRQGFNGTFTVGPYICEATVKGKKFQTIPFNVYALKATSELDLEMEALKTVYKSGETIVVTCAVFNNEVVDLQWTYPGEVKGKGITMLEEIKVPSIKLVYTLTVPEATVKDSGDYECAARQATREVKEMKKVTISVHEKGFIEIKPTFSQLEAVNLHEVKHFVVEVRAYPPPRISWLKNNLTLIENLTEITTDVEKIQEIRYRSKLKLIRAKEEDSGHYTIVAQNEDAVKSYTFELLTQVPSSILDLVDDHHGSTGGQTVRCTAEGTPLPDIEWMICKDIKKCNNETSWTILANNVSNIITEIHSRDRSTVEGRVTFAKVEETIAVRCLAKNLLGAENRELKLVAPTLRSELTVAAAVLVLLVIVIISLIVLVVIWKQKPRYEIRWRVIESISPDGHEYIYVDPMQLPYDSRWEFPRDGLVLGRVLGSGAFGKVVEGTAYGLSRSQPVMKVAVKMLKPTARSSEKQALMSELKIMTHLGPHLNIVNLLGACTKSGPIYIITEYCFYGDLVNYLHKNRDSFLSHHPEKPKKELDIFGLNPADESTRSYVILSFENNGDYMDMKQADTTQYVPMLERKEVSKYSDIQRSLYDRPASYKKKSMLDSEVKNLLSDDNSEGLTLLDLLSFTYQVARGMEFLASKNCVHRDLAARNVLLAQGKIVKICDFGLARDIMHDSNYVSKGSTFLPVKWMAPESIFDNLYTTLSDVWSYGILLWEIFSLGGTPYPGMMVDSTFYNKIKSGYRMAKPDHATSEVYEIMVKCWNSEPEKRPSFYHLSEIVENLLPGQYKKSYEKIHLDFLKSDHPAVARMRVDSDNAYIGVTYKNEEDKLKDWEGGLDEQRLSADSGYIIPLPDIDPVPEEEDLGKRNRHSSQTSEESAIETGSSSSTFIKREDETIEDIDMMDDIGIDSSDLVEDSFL
UniProt P10721, 26-976 limits assumed: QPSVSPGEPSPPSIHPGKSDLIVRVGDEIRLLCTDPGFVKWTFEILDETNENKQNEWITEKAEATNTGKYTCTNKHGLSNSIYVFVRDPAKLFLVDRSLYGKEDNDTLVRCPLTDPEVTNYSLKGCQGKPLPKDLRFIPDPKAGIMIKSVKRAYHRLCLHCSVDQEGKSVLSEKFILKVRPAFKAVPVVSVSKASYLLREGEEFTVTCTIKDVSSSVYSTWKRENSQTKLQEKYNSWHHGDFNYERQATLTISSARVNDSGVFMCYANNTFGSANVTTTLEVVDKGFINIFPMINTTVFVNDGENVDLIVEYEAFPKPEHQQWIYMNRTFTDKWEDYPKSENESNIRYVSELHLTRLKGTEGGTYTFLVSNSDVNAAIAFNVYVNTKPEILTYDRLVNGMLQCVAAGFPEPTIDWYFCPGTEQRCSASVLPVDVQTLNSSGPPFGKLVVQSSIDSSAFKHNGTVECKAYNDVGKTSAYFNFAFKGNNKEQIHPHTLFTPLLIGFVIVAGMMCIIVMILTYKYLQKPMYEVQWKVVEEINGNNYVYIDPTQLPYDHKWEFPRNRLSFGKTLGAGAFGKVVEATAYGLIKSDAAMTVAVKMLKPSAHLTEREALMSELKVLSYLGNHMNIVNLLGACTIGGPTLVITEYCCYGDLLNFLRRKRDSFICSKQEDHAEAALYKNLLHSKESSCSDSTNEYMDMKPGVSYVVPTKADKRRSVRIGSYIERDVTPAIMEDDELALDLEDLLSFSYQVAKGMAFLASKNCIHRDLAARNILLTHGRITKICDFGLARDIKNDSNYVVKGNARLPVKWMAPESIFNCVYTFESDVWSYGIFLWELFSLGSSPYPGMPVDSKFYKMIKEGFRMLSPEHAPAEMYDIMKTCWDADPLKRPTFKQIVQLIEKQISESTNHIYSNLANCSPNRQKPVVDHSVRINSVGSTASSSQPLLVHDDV
UniProt Q9UNQ0, whole entry: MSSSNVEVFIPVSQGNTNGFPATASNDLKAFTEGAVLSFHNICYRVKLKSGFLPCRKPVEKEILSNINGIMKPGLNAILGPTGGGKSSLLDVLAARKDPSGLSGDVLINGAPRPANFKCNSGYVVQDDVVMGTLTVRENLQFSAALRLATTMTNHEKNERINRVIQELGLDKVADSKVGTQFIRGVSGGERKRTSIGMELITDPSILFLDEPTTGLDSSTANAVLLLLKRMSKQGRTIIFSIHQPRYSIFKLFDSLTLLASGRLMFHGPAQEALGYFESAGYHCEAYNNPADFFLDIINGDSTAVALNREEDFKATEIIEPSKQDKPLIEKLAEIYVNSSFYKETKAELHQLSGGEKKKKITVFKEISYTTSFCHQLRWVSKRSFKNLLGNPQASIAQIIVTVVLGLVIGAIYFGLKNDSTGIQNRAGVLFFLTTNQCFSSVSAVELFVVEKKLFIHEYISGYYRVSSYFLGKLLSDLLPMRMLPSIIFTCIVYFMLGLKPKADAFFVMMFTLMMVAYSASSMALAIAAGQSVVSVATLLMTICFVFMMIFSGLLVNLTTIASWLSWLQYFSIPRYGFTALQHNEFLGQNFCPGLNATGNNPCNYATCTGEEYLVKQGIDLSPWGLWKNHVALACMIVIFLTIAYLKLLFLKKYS
UniProt P08183, whole entry: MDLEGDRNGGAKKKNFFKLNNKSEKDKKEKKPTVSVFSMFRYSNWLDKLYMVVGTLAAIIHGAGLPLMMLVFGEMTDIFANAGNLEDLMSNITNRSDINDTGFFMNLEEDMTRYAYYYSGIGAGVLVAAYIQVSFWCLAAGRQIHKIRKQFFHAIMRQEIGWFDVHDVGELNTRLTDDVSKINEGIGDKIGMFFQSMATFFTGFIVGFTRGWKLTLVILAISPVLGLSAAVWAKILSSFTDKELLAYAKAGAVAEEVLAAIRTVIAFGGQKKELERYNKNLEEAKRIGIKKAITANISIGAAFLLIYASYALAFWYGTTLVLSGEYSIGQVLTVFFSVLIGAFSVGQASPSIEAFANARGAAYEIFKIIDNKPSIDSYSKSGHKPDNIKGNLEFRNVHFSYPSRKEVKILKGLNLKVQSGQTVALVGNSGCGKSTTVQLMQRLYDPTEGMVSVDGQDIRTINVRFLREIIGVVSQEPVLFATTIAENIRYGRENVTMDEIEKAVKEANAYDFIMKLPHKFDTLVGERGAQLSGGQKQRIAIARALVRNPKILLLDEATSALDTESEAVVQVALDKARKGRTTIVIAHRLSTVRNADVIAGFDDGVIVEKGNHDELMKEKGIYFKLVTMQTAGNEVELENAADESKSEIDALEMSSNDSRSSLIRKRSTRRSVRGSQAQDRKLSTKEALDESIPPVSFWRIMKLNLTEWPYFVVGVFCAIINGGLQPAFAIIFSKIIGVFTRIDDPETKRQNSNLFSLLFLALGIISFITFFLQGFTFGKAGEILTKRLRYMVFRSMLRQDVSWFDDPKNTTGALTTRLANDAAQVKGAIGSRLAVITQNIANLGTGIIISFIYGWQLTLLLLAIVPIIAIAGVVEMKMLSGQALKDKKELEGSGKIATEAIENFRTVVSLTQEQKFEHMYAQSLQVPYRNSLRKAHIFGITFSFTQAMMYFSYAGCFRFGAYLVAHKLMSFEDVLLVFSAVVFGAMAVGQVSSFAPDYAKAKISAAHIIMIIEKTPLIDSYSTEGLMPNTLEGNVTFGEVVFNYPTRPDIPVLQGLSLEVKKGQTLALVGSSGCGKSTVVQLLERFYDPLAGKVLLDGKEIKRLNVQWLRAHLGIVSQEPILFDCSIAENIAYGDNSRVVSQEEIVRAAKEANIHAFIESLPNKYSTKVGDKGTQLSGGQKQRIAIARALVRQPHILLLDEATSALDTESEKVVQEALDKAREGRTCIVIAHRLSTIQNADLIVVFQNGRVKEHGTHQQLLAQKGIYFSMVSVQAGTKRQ

Where only a bound is given, the exact number is not on record here.

As for `COc1ccn2c(C(=O)Nc3cc(-c4noc(C5CC5F)n4)ccc3C)cnc2c1` (centres unmarked), in data set [1], the Brain concentration turned out to be 4470 ng/g, the Kp brain/plasma was 0.5, the Kp testes/plasma was 0.36 and the Plasma concentration is 8980 ng/mL. The same compound came in with a Testes concentration in data set [1] of 3240 ng/g. The IC50 on CSF-1R [2] was less than 50 nM. In the data set on CYP3A4, the “CYP 3A4 induction mRNA: Mean fold at 10 μM” value is listed as “+++ (induction fold of greater than 3-fold to less than or equal to 10-fold)”. In addition, the IC50 in data set [3] was less than 50 nM. Further, on PDGFRα [4], the IC50 lay within 50 to 500 nM. Also, at CSF-1R [5], the IC50 is less than 50 nM. The “Solubility (μM)” value in the data set “Kinetic solubility assay” is listed as “**** (a solubility less than or equal to 2 μM)”. For the same compound, the IC50 at wtKIT [6] was less than 50 nM. The IC50 on PDGFRα [7] was in the range of 50 to 500 nM. In addition, in the data set with Caco-2 cells, the Caco-2: Efflux Ratio worked out at 0.68 and the “Caco-2: Papp A-B” value is 15.9 10^−6 cm/s. In data set [8], the MDCK-BCRP: Efflux Ratio amounted to 0.92 and the “MDCK-BCRP: Papp A-B” value was 12.6 10^−6 cm/s. In addition, the IC50 on wtKIT [9] was less than 50 nM. In addition, at MDR1 (MDR1-MDCKII cells), the MDCKII-MDR1: Efflux Ratio turned out to be 0.64 and the “MDCKII-MDR1: Papp A-B” value is given as 14.8 10^−6 cm/s.

For the compound `Cc1ccc(-c2noc(C[C@@H](C)O)n2)cc1NC(=O)c1cnc2ccccn12`, the IC50 at CSF-1R [2] is 50 to 500 nM; in data set [3], less than 50 nM; at PDGFRα [4], 500 to 5000 nM; on CSF-1R [5], 500 to 5000 nM; at wtKIT [6], less than 50 nM; at PDGFRα [7] it was 5000 to 30000 nM. For the same compound, the IC50 at wtKIT [9] was 50 to 500 nM. In addition, in the data set with CYP3A4, the “CYP 3A4 induction mRNA: Mean fold at 10 μM” value is listed as “+ (induction fold of less than or equal to 2-fold)”. The “Solubility (μM)” value in “Kinetic solubility assay” is recorded as “* (a solubility greater than 50 μM)”. The Caco-2: Efflux Ratio with Caco-2 cells was found to be 1.87. Also, the “Caco-2: Papp A-B” value in the data set with Caco-2 cells was 6.65 10^−6 cm/s. The MDCK-BCRP: Efflux Ratio in data set [8] was 14.8. The “MDCK-BCRP: Papp A-B” value in data set [8] is recorded as 2.22 10^−6 cm/s. Besides, the MDCKII-MDR1: Efflux Ratio at MDR1 (MDR1-MDCKII cells) stood at 1.9. Also, the “MDCKII-MDR1: Papp A-B” value on MDR1 (MDR1-MDCKII cells) is 14.3 10^−6 cm/s.

(Values after US20240254119A1 (THIRD HARMONIC BIO, INC., priority 2022, published 2024).)
